Assays:
AChE = AChE (Homo sapiens, UniProt P22303); assay: Inhibition of AChE by TPPS1
TPPS1-AChE complex = TPPS1-AChE complex (Homo sapiens, UniProt P22303); assay: Alteration of the TPPS1-AChE complex spectrum (442 nm region) by added compounds; conditions: compounds binding at the active site vs elsewhere

Protein sequences, listed by entry. Tags and fused reporters are not part of them. Residues count along the entry.
UniProt P22303, 32-614 limits assumed: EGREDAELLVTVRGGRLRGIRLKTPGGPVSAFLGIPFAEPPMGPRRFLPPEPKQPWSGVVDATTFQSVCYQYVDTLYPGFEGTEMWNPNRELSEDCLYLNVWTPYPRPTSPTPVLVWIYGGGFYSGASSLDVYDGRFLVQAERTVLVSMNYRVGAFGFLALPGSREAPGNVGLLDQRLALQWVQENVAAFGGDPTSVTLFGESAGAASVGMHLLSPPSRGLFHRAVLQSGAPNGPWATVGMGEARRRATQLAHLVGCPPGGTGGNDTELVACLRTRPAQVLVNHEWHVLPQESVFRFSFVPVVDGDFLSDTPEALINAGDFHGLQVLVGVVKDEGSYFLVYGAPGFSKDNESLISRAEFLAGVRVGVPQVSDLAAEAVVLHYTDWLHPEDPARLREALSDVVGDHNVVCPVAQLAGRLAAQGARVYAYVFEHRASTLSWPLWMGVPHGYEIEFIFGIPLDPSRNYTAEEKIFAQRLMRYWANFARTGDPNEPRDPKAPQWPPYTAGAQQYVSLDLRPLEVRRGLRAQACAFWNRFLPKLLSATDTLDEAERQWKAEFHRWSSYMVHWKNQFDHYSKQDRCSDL

Compound | inhibition of AChE (AChE) | spectrum of the TPPS1-AChE complex altered in the 442 nm region by addition of compound (TPPS1-AChE complex)
monosulfonate tetraphenyl porphyrin | effective competitive inhibitor | –
CCN(CC)CCOC(=O)c1ccc(N)cc1 | – | not
CCCCNc1ccc(C(=O)OCCN(C)C)cc1 | – | altered
